We go through seven compounds from patent US6344564B1, “Fungicidal 2-imidazolin-5-ones and 2-imidazoline-5-thiones” (priority 1992, dated 2002).

The subject of this assay is Plasmopara viticola. Description: In vivo test on Plasmopara viticola (grape downy mildew). Particulars: in Vitis vinifera, 168 h, dose of 1 g/l, vine cuttings (Vitis vinifera, Chardonnay) sprayed 24 hours before infecting, reading 7 days after infecting, read-out: protection.
With `CSC1=NC(C)(c2ccccc2)C(=O)N1OCc1ccccc1` (stereo not shown) [Compound 56, 4-phenyl-4-methyl-1-(benzyloxy)-2-methylthio-2-imidazolin-5-one], the pest or weed control at 1000 µg/mL was ≥ 75%.
Consider `CSC1=NC(C)(c2ccccc2)C(=O)N1Sc1ccccc1` (stereo not shown) [Compound 95, 4-phenyl-4-methyl-1-(phenylthio)-2-methylthio-2-imidazolin-5-one], for which the pest or weed control at 1000 µg/mL was ≥ 75%.
As to `CSC1=NC2(CCCc3ccccc32)C(=O)N1Nc1ccccc1` (stereo not shown) [Compound 97], the pest or weed control at 1000 µg/mL is ≥ 75%.
For the compound `CSC1=NC2(CCc3ccccc32)C(=O)N1Nc1ccccc1` (stereo not shown) [Compound 98], the pest or weed control at 1000 µg/mL was ≥ 75%.
For the compound `CSC1=NC2(CCCc3ccccc32)C(=O)N1Nc1ccccc1Cl` (stereo not shown) [Compound 104], the pest or weed control at 1000 µg/mL was ≥ 75%.
On to `CC1=NC2(CCCc3ccccc32)C(=O)N1Nc1ccccc1` (stereo not shown) [Compound 227], for which the pest or weed control at 1000 µg/mL is ≥ 75%.
To `CC1=NC2(CCc3ccccc32)C(=O)N1Nc1ccccc1` (stereo not shown) [Compound 228] belongs ≥ 75%.
